This experiment deals with natural killer (NK) cells (CD56). Kind of experiment: FastImmune CD69 NK-cell activation in whole blood cultures. The note with it: for NK-cell Activation, Activation (%): 24 h blood culture; for NK-cell Activation, % Increase: increase over untreated control. It counts as cell-based, human. The source says: In vitro lymphocyte activation represents a standard approach for evaluating cell-mediated responses to a variety of stimuli including immunostimulatory botanical extracts. The FastImmune assay system monitors the expression of the early activation marker CD69 in whole blood after stimulation with extracts.
CD19 antigen is present on human B lymphocytes at all stages of maturation and is not present on resting or activated T-lymphocytes. CD19/CD69/CD45 combination can be used to identify activated B cell population. CD56 antigen is present on natural killer (NK) cells and antigen intensity increases with NK-cell activation.
Blood samples were collected from healthy volunteers and 250 μl blood sample were incubated in 48-well plates with increasing concentrations of compound along with appropriate positive controls (recommended by Becton Dickinson Biosciences, CA) for each subset. CD2/CD2R and Phorbol ester (PMA) were used as controls for T-lymphocyte activation studies. Pokeweed (PWM) mitogen was used as positive control for B-cell activation and IL-2 was used for activating NK-cells in blood cultures. T2CA, a characterized polysaccharide complex evaluated in these assays was also used as a control. The blood cultures were incubated at 37° C. in a CO2 incubator for 24 h. On the next day, 20 μl of specific antibody mix, [CD4-FITC/CD69-PE/CD45-PerCP (T-helper/inducer cell activation), CD8-FITC/CD69-PE/CD3-PerCP (T-cytotoxic/suppressor cell activation), CD19-FITC/CD69-PE/CD45-PerCP (B-cell activation) and CD56-FITC/CD69-PE/CD45-PerCP (NK-cell activation)] was dispensed into separate flow tubes and 50 μl blood sample was mixed with antibody and incubated for 30 minutes at room temperature in the dark. The blood-antibody mix was lyzed in a Coulter Epics Q-prep work station using Immunoprep kit and run on a Beckman Coulter Elite flow cytometer using a 3-color protocol. The percentage of activated T-cell subsets, B-cells and NK-cells and the percentage increase over untreated control were calculated and plotted against compound concentrations.

Experimental findings from patent publication US8916541B2, “Synergistic combination of honokiol and modified citrus pectin in cancer therapy” (Better Health Publishing, Inc., priority 2011, dated 2014) are described below.

With “IL-2: used for activating NK-cells in blood cultures”, where the note is “3.3 ng/ml”, the “NK-cell Activation, Activation (%)” value is 8.80% and the “NK-cell Activation, % Increase” value was found to be 175.65%. For the same substance, for the setting “6.6 ng/ml”, the “NK-cell Activation, Activation (%)” value was determined as 13.30% and the “NK-cell Activation, % Increase” value stood at 383.77%.
